# Earlier results in publication PMC8880779, “Design and Experimental Evaluation of a Peptide Antagonist against Amyloid β(1–42) Interactions with Calmodulin and Calbindin-D28k” (International Journal of Molecular Sciences, 2022).
# pKd: −log10 of the molar value.
# Target: Calmodulin (UniProt P0DP23)
# Details: cited from earlier work
substance,measurement,value
Amyloid β(1-42) 1-42 (from UniProt P05067),pKd,9.00
